Earlier results on one substance are cited in US7217431B2, “Controlled agglomeration” (LifeCycle Pharma A/S, priority 2001, dated 2007).

The conditions of this data set: Table 2, figure in brackets after 'Low'.

For Buprenorphine, the Bioavailability entry is reported as “Low (<30%)”.
